{"source": "ChEMBL document CHEMBL5325439", "about": "“Application of an \"inhalation by design\" approach to the identification and in-vitro evaluation of novel purine based PI3Kδ inhibitors” (Eur J Med Chem, 2023)", "tested_on": "HepG2", "assay": "Cytotoxicity against human HepG2 cells assessed as reduction in cell viability at 10 to 30 uM incubated for 48 hrs by celltiter-glo assay", "assay_type": "functional, cell-based", "conditions": "dose 10-30 µM", "note": "Active and inactive are the calls of the source. No cut-off for these calls is given here.", "data": [{"smiles": "CC/C(=C(\\c1ccccc1)c1ccc(OCCN(C)C)cc1)c1ccccc1", "values": [{"measurement": "Activity", "result": "Active"}]}]}
